Measurements reported in US6521814B1, “Use of ligands for treatment of diseases responsive to retinoids” (Institut National de la Santa et de la Recherche Medicale, priority 1997, dated 2003).

Target: T1, RXRγ (Mus musculus, UniProt P28705)
T1 construct: expressed in transfected cells; host or cells: COS-1
T1 sequence (P28705 1-463): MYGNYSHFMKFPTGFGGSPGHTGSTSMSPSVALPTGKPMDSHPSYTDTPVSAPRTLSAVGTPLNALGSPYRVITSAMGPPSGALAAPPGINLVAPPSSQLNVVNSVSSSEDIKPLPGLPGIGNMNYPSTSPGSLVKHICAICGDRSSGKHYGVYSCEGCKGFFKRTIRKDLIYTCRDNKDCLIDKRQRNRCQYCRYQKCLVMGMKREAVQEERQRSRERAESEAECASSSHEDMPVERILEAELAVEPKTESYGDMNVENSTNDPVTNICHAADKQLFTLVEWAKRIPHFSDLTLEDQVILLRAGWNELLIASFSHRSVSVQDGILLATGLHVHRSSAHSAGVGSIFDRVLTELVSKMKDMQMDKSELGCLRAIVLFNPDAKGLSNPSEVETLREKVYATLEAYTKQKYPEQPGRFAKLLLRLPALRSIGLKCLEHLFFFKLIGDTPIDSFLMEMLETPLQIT
Assay: D2R promoter CAT reporter assay in COS-1 cells cotransfected with RXRγ expression vector
Type: cell-based
Conditions: 0.1 μM
Text: Expression Vectors. The C1 reporter construct was obtained by subcloning the HindIII fragment spanning the 5 ′ promoter region of the D2R gene (positions −495 to +273), in the reporter plasmid pBLCAT3 (Luckow, B. & Schütz, G., Nucleic Acids Res. 15:5490 (1987)). The C2 reporter plasmid was constructed by subcloning the SmaI-XhoI fragment (positions −76 to +273) in the same position. The C3 and C4 reporters were generated by cloning a 29 bp synthetic oligonucleotide corresponding, respectively, to the natural rat D2R RARE sequence and the mutated one into pBLCAT2 (Luckow, B. & Schütz, G., Nucleic Acids Res. 15:5490 (1987)). The polylinker in pBLCAT2 is located upstream of the herpes simplex virus 1 (HSV1) thymidine kinase (TK) promoter, from position −105 to +51. To measure transfection efficiency the plasmid pCH110 carrying the β-galactosidase gene (Pharmacia) was used. Mouse […], as well as mouse RXRα, β and γ expression vectors were derived from the parental pSG5 vector (Green, S., et al., Nucleic Acids Res. 16:369 (1988)).
COS-1 cells were used for transient transfection assays. Cells were grown in Dulbecco's modified Eagle's medium supplemented with 5% fetal calf serum.
Several hours before transfection, the medium was replaced with fresh medium containing 5% charcoal-treated FCS. […]

- increase in CAT activity (C1 reporter + RXRγ): 9 fold
- increase in CAT activity (C2 reporter + RXRγ): 21 fold
Structure (SMILES): CC1=C(/C=C/C(C)=C\C=C\C(C)=C\C(=O)O)C(C)(C)CCC1 [9-cis-RA, 9-cis RA]
